Values of other authors in patent publication US20220089765A1, “CD31 COMPETITORS AND USES THEREOF” (ENCEFA, priority 2019, published 2022).

Conditions: in humans; cited from earlier work

Aducanumab: monoclonal antibody whose brain/plasma ratio in humans is cited [reference compound]
Brain/plasma ratio: 1.3%
